Assay results as given in patent publication US20090137001.

Test system: fibrinogen (Juridical Foundation The Chemo-Sero-Therapeutic Research Institute)

Substance	Clotting activity (Japan Pharmacopoeia standard) [U/mg]	Clotting activity (NIBSC standard) [U/mg]
purified human thrombin derived from plasma (purchased from HTI)	1790	2937
purified recombinant human thrombin (from human prothrombin expressed in CHO cells, activated with recombinant ecarin)	1784	3218
